Test results taken from patent US20220133841A1 (Ra Pharmaceuticals, Inc., priority 2018, published 2022).

Columns and labels:
[1] = cited from earlier work
[2] = test system: AChR autoantibody-positive patients; conditions: 26 weeks, cited from earlier work
[3] = test system: AChR autoantibody-positive patients with refractory gMG; conditions: cited from earlier work
[4] = not told

eculizumab
Eculizumab biodistribution % (inferred) ([1]; Bone): 7.27%
Eculizumab biodistribution % (inferred) ([1]; Brain): 0.35%
Eculizumab biodistribution % (inferred) ([1]; Fat): 4.78%
Eculizumab biodistribution % (inferred) ([1]; Heart): 10.2%
Eculizumab biodistribution % (inferred) ([1]; Large Intestine): 5.03%
Eculizumab biodistribution % (inferred) ([1]; Liver): 12.1%
Eculizumab biodistribution % (inferred) ([1]; Lung, based on Shah et al. 2013): 14.9%
Eculizumab biodistribution % (inferred) ([1]; Lymph nodes): 8.46%
Eculizumab biodistribution % (inferred) ([1]; Muscle): 3.97%
Eculizumab biodistribution % (inferred) ([1]; Pancreas): 6.4%
Eculizumab biodistribution % (inferred) ([1]; Small intestine): 5.22%
Eculizumab biodistribution % (inferred) ([1]; Spleen): 12.8%
Eculizumab biodistribution % (inferred) ([1]; Stomach): 4.98%
Eculizumab biodistribution % (inferred) ([1]; Testes): 5.88%
Eculizumab biodistribution % (inferred) ([1]; Thymus): 6.62%
Change from baseline in QMG score (secondary endpoint) ([2]; p=0.0129): statistically significant
Change from baseline in MG-ADL relative to placebo (primary endpoint) ([2]; p=0.0698): not associated with a statistically significant benefit
Patients achieving a ≥3-point improvement in QMG score ([3]; after initial 16-week treatment period, placebo 4 out of 7): 6 out of 7
Time to impact on QMG score after initiating treatment ([3]; favored eculizumab vs placebo across all visits (p=0.0144)): ≤ 1 week
Patients achieving an 8-point reduction in QMG score ([3]; of responders, placebo arm 1): 4 patients
Percentage diffused from upper to lower reservoir [4]: less than 20%

Where two headings read alike, the source gives them in different places.
